This test relates to MOLT-4 cells. Nature of the test: Cell viability assay, MOLT-4 (CellTiter-Glo, 72 h). The conditions noted are these: read-out: MOLT4 Cell viability IC50. The method, then: Human T-ALL cell MOLT-4 or SCLC NCI-H146 was cultured using standard cell culture conditions in RPMI-1640 supplemented with 10% FBS in humidified incubator at 37 °C, 5% CO2. To assess the effect of BCL-XL PROTAC degraders on cell viability, exponentially growing cells were seeded at a density of 10,000 cells/well in 96-well plates. After cell seeding, serially-diluted compound or DMSO was added to the cells (in concentration ranging from 0 to 10 uM, 3* dilution series), and plates were incubated for 72 hours. Cell viability was measured using a CellTiter-Glo Luminescent Cell Viability Assay kit (Promega) according to the manufacturer's protocol. The luminescence signal of treated cells was normalized to DMSO control. The dose response curves and IC50 values were generated using Prism.
On the technique in general: ATP-based viability assays read luminescence as a measure of living cells.
In the case of `CCn1c(C)c(C(=O)N2CCOCC2)c(-c2cc(F)cc(N3CCN(c4ccc(NS(=O)(=O)c5ccc(N[C@H](CCN6CCN(CCCCCCC(=O)N[C@H](C(=O)N7C[C@H](O)C[C@H]7C(=O)N[C@@H](C)c7ccc(-c8scnc8C)cc7)C(C)(C)C)CC6)CSc6ccccc6)c(S(=O)(=O)C(F)(F)F)c5)cc4)CC3)c2)c1-c1ccc(F)cc1`, the IC50 was determined as 20 nM.

For `CCn1c(C)c(C(=O)N2CCOCC2)c(-c2cc(F)cc(N3CCN(c4ccc(NS(=O)(=O)c5ccc(N[C@H](CCN6CCN(C(=O)CCCCCC(=O)N[C@H](C(=O)N7C[C@H](O)C[C@H]7C(=O)N[C@@H](C)c7ccc(-c8scnc8C)cc7)C(C)(C)C)CC6)CSc6ccccc6)c(S(=O)(=O)C(F)(F)F)c5)cc4)CC3)c2)c1-c1ccc(Cl)cc1`, the IC50 was 39 nM.

Regarding `CCn1c(C)c(C(=O)N2CC3(CCOCC3)C2)c(-c2cc(F)cc(N3CCN(c4ccc(NS(=O)(=O)c5ccc(N[C@H](CCN6CCN(CCCCCCC(=O)N[C@H](C(=O)N7C[C@H](O)C[C@H]7C(=O)N[C@@H](C)c7ccc(-c8scnc8C)cc7)C(C)(C)C)CC6)CSc6ccccc6)c(S(=O)(=O)C(F)(F)F)c5)cc4)CC3)c2)c1-c1ccc(F)cc1`, the IC50 was 12 nM.

Turning to `CCn1c(C)c(S(C)(=O)=O)c(-c2cc(F)cc(N3CCN(c4ccc(NS(=O)(=O)c5ccc(N[C@H](CCN6CCN(C(=O)CCCCOC(=O)N[C@H](C(=O)N7C[C@H](O)C[C@H]7C(=O)N[C@@H](C)c7ccc(-c8scnc8C)cc7)C(C)(C)C)CC6)CSc6ccccc6)c(S(=O)(=O)C(F)(F)F)c5)cc4)CC3)c2)c1-c1ccc(F)cc1`, the IC50 worked out at 54 nM.

Regarding `CCn1c(C)c(S(C)(=O)=O)c(-c2cc(F)cc(N3CCN(c4ccc(NS(=O)(=O)c5ccc(N[C@H](CCN6CCN(C7CCN(CCOc8cc([C@@H](C(=O)N9C[C@H](O)C[C@H]9C(=O)N[C@@H](CO)c9ccc(-c%10scnc%10C)cc9)C(C)C)on8)CC7)CC6)CSc6ccccc6)c(S(=O)(=O)C(F)(F)F)c5)cn4)CC3)c2)c1-c1ccc(F)cc1`, the IC50 was determined as 137 nM.

With `CCn1c(C)c(S(C)(=O)=O)c(-c2cc(F)cc(N3CCN(c4ccc(NS(=O)(=O)c5ccc(N[C@H](CCN6CCN(CCCCCC(=O)N[C@H](C(=O)N7C[C@H](O)C[C@H]7C(=O)N[C@@H](C)c7ccc(-c8scnc8C)cc7)C(C)(C)C)CC6)CSc6ccccc6)c(S(=O)(=O)C(F)(F)F)c5)cc4)CC3)c2)c1-c1ccc(F)cc1`, the IC50 was 18 nM.

Regarding `CCn1c(C)c(C(=O)N2C[C@H](O)[C@@H](F)C2)c(-c2cc(F)cc(N3CCN(c4ccc(NS(=O)(=O)c5ccc(N[C@H](CCN6CCN(C(=O)CCCCCC(=O)N[C@H](C(=O)N7C[C@H](O)C[C@H]7C(=O)N[C@@H](C)c7ccc(-c8scnc8C)cc7)C(C)(C)C)CC6)CSc6ccccc6)c(S(=O)(=O)C(F)(F)F)c5)cc4)CC3)c2)c1-c1ccc(F)cc1`, the IC50 amounted to 23 nM.

On to `CCn1c(C)c(C(=O)N2CC[C@@](C)(O)C2)c(-c2cc(F)cc(N3CCN(c4ccc(NS(=O)(=O)c5ccc(N[C@H](CCN6CCN(C(=O)CCCCCC(=O)N[C@H](C(=O)N7C[C@H](O)C[C@H]7C(=O)N[C@@H](C)c7ccc(-c8scnc8C)cc7)C(C)(C)C)CC6)CSc6ccccc6)c(S(=O)(=O)C(F)(F)F)c5)cc4)CC3)c2)c1-c1ccc(F)cc1`, for which the concentration for half-maximal inhibition (IC50) came to 72 nM.

For `CCn1c(C)c(S(C)(=O)=O)c(-c2cc(F)cc(N3CCN(c4ncc(NS(=O)(=O)c5ccc(N[C@H](CCN6CCN(CCCOc7cn([C@@H](C(=O)N8C[C@H](O)C[C@H]8C(=O)N[C@@H](CO)c8ccc(-c9scnc9C)cc8)C(C)(C)C)nn7)CC6)CSc6ccccc6)c(S(=O)(=O)C(F)(F)F)c5)cn4)CC3)c2)c1-c1ccc(F)cc1`, the IC50 stood at 2300 nM.

On to `CCn1c(C)c(S(C)(=O)=O)c(-c2cc(F)cc(N3CCN([C@H]4CC[C@H](NS(=O)(=O)c5ccc(N[C@H](CCN6CCN(C7CCN(CCOc8cc([C@@H](C(=O)N9C[C@H](O)C[C@H]9C(=O)N[C@@H](CO)c9ccc(-c%10scnc%10C)cc9)C(C)C)on8)CC7)CC6)CSc6ccccc6)c(S(=O)(=O)C(F)(F)F)c5)CC4)CC3)c2)c1-c1ccc(F)cc1`, for which the IC50 was 595 nM.

Turning to `CCn1c(C)c(C(=O)N2CC[C@@H](F)C2)c(-c2cc(F)cc(N3CCN(c4ccc(NS(=O)(=O)c5ccc(N[C@H](CCN6CCN(C(=O)CCCCCC(=O)N[C@H](C(=O)N7C[C@H](O)C[C@H]7C(=O)N[C@@H](C)c7ccc(-c8scnc8C)cc7)C(C)(C)C)CC6)CSc6ccccc6)c(S(=O)(=O)C(F)(F)F)c5)cc4)CC3)c2)c1-c1ccc(F)cc1`, the IC50 stood at 200 nM.

In the case of `CCn1c(C)c(C(=O)N2CC[C@@H](C#N)C2)c(-c2cc(F)cc(N3CCN(c4ccc(NS(=O)(=O)c5ccc(N[C@H](CCN6CCN(C(=O)CCCCCC(=O)N[C@H](C(=O)N7C[C@H](O)C[C@H]7C(=O)N[C@@H](C)c7ccc(-c8scnc8C)cc7)C(C)(C)C)CC6)CSc6ccccc6)c(S(=O)(=O)C(F)(F)F)c5)cc4)CC3)c2)c1-c1ccc(F)cc1`, the IC50 was determined as 37 nM.

For the molecule `CCn1c(C)c(S(=O)(=O)N2C[C@H](O)[C@@H](F)C2)c(-c2cc(F)cc(N3CCN(c4ccc(NS(=O)(=O)c5ccc(N[C@H](CCN6CCN(C(=O)CCCCCC(=O)N[C@H](C(=O)N7C[C@H](O)C[C@H]7C(=O)N[C@@H](C)c7ccc(-c8scnc8C)cc7)C(C)(C)C)CC6)CSc6ccccc6)c(S(=O)(=O)C(F)(F)F)c5)cc4)CC3)c2)c1-c1ccc(F)cc1`, the IC50 turned out to be 19 nM.

As to `CCn1c(C)c(S(C)(=O)=O)c(-c2cc(F)cc(N3CCN(c4ncc(NS(=O)(=O)c5ccc(N[C@H](CCN6CCN(CCCc7cc([C@@H](C(=O)N8C[C@H](O)C[C@H]8C(=O)N[C@@H](CO)c8ccc(-c9scnc9C)cc8)C(C)C)on7)CC6)CSc6ccccc6)c(S(=O)(=O)C(F)(F)F)c5)cn4)CC3)c2)c1-c1ccc(F)cc1`, the half-maximal inhibitory concentration (IC50) amounted to 361 nM.

Consider `CCn1c(C)c(C(=O)N2CC[C@H](O)C2)c(-c2cc(F)cc(N3CCN(c4ccc(NS(=O)(=O)c5ccc(N[C@H](CCN6CCN(C(=O)NCCCCCC(=O)N[C@H](C(=O)N7C[C@H](O)C[C@H]7C(=O)N[C@@H](C)c7ccc(-c8scnc8C)cc7)C(C)(C)C)CC6)CSc6ccccc6)c(S(=O)(=O)C(F)(F)F)c5)cc4)CC3)c2)c1-c1ccc(F)cc1`, for which the IC50 was 95 nM.

Turning to `CCn1c(C)c(C(=O)N2CC[C@@H](OC)C2)c(-c2cc(F)cc(N3CCN(c4ccc(NS(=O)(=O)c5ccc(N[C@H](CCN6CCN(C(=O)CCCCCC(=O)N[C@H](C(=O)N7C[C@H](O)C[C@H]7C(=O)N[C@@H](C)c7ccc(-c8scnc8C)cc7)C(C)(C)C)CC6)CSc6ccccc6)c(S(=O)(=O)C(F)(F)F)c5)cc4)CC3)c2)c1-c1ccc(F)cc1`, the IC50 came out at 40 nM.

For the molecule `Cc1ncsc1-c1ccc([C@H](C)NC(=O)[C@@H]2C[C@@H](O)CN2C(=O)[C@@H](NC(=O)CCCCCC(=O)N2CCN(CC[C@H](CSc3ccccc3)Nc3ccc(S(=O)(=O)Nc4ccc(N5CCN(c6cc(F)cc(-c7c(C(=O)N8CC[C@H](O)C8)c(C)n(CC(F)(F)F)c7-c7ccc(F)cc7)c6)CC5)cc4)cc3S(=O)(=O)C(F)(F)F)CC2)C(C)(C)C)cc1`, the IC50 is 220 nM.

In the case of `CCn1c(C)c(S(C)(=O)=O)c(-c2cc(F)cc(N3CCN(c4ccc(NS(=O)(=O)c5ccc(N[C@H](CCN6CCN(C(=O)NCCCCCC(=O)N[C@H](C(=O)N7C[C@H](O)C[C@H]7C(=O)N[C@@H](C)c7ccc(-c8scnc8C)cc7)C(C)(C)C)CC6)CSc6ccccc6)c(S(=O)(=O)C(F)(F)F)c5)cc4)CC3)c2)c1-c1ccc(F)cc1`, the IC50 came out at 40 nM.

Consider `CCn1c(C)c(S(C)(=O)=O)c(-c2cc(F)cc(N3CCN([C@H]4CC[C@@H](NS(=O)(=O)c5ccc(N[C@H](CCN6CCN(C7CCN(CCOc8cc([C@H](C(=O)N9C[C@H](O)C[C@H]9C(=O)N[C@@H](CO)c9ccc(-c%10scnc%10C)cc9)C(C)C)on8)CC7)CC6)CSc6ccccc6)c(S(=O)(=O)C(F)(F)F)c5)CC4)CC3)c2)c1-c1ccc(F)cc1`, for which the IC50 was 7400 nM.

On to `CCn1c(C)c(S(=O)(=O)NCCC2CCOCC2)c(-c2cc(F)cc(N3CCN(c4ccc(NS(=O)(=O)c5ccc(N[C@H](CCN6CCN(C(=O)CCCCCC(=O)N[C@H](C(=O)N7C[C@H](O)C[C@H]7C(=O)N[C@@H](C)c7ccc(-c8scnc8C)cc7)C(C)(C)C)CC6)CSc6ccccc6)c(S(=O)(=O)C(F)(F)F)c5)cc4)CC3)c2)c1-c1ccc(F)cc1`, for which the IC50 turned out to be 34 nM.

`CCn1c(C)c(S(C)(=O)=O)c(-c2cc(F)cc(N3CCN([C@H]4CC[C@@H](NS(=O)(=O)c5ccc(N[C@H](CCN6CCN(C7CCN(CCOc8cc([C@@H](C(=O)N9C[C@H](O)C[C@H]9C(=O)N[C@@H](CO)c9ccc(-c%10scnc%10C)cc9)C(C)C)on8)CC7)CC6)CSc6ccccc6)c(S(=O)(=O)C(F)(F)F)c5)CC4)CC3)c2)c1-c1ccc(F)cc1`: the IC50 was determined as 41000 nM.

`CCn1c(C)c(S(C)(=O)=O)c(-c2cc(F)cc(N3CCN(c4ccc(NS(=O)(=O)c5ccc(N[C@H](CCN6CCN(C(=O)CCOCCOCC(=O)N[C@H](C(=O)N7C[C@H](O)C[C@H]7C(=O)N[C@@H](C)c7ccc(-c8scnc8C)cc7)C(C)(C)C)CC6)CSc6ccccc6)c(S(=O)(=O)C(F)(F)F)c5)cc4)CC3)c2)c1-c1ccc(F)cc1`: the IC50 was determined as 28 nM.

As for `CCn1c(C)c(S(C)(=O)=O)c(-c2cc(F)cc(N3CCN(c4cnc(NS(=O)(=O)c5ccc(N[C@H](CCN6CCN(C7CCN(CCOc8cc([C@@H](C(=O)N9C[C@H](O)C[C@H]9C(=O)N[C@@H](CO)c9ccc(-c%10scnc%10C)cc9)C(C)C)on8)CC7)CC6)CSc6ccccc6)c(S(=O)(=O)C(F)(F)F)c5)cn4)CC3)c2)c1-c1ccc(F)cc1`, the concentration for half-maximal inhibition (IC50) turned out to be 196 nM.

For the molecule `CCn1c(C)c(S(C)(=O)=O)c(-c2cc(F)cc(N3CCN(c4ccc(NS(=O)(=O)c5ccc(N[C@H](CCN6CCN(C(=O)C7CC8(CC(CC(=O)N[C@H](C(=O)N9C[C@H](O)C[C@H]9C(=O)N[C@@H](C)c9ccc(-c%10scnc%10C)cc9)C(C)(C)C)C8)C7)CC6)CSc6ccccc6)c(S(=O)(=O)C(F)(F)F)c5)cc4)CC3)c2)c1-c1ccc(F)cc1` (stereo partly drawn), the half-inhibitory concentration (IC50) was 140 nM.

The term IC50 denotes the concentration that inhibits the measured activity by half.
